Reference: ChEMBL document CHEMBL6071128, “Chalcone-Monoterpene Derivatives from the Buds of Cleistocalyx operculatus and Their Potential as Protein Tyrosine Phosphatase 1B Inhibitors” (J Nat Prod, 2024)
Calls of active or inactive are those of the source. No cut-off for these calls is given here.

Molecular target: T1, Tyrosine-protein phosphatase non-receptor type 1 (Homo sapiens) (UniProt P18031)
T1 sequence (whole entry): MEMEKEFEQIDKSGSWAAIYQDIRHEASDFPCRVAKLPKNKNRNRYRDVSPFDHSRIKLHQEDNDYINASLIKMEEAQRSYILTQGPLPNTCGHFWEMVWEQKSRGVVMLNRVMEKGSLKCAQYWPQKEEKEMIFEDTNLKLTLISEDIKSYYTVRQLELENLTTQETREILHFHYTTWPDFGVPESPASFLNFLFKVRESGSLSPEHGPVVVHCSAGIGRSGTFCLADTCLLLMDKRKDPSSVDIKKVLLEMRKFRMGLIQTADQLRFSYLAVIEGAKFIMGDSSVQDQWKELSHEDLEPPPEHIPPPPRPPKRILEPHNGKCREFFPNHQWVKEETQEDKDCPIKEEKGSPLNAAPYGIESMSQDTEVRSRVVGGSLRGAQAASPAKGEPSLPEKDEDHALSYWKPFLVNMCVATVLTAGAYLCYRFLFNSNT
Assay: Competitive type inhibition of human recombinant PTP1B (1 to 322 residues) extracted from Escherichia coli using p-nitrophenyl phosphate as substrate preincubated for 2 mins followed by substrate addition and measured after 15 mins by Lineweaver-Burk analysis
Settings: time 17.0 min

- inhibition: Active
SMILES: CC1=C2O[C@]34OC(c5ccccc5)CC(O)=C3C(=O)C(C)(C)C(=O)[C@]4(C)CC2=C(O)C(C(=O)/C=C/c2ccccc2)C1=O (stereo partly specified)
